Biological target: Vascular endothelial growth factor receptor 2 (Homo sapiens, UniProt P35968)

By UniProt entry, the sequences of proteins in these tests, tags left out.
UniProt P35968, whole entry: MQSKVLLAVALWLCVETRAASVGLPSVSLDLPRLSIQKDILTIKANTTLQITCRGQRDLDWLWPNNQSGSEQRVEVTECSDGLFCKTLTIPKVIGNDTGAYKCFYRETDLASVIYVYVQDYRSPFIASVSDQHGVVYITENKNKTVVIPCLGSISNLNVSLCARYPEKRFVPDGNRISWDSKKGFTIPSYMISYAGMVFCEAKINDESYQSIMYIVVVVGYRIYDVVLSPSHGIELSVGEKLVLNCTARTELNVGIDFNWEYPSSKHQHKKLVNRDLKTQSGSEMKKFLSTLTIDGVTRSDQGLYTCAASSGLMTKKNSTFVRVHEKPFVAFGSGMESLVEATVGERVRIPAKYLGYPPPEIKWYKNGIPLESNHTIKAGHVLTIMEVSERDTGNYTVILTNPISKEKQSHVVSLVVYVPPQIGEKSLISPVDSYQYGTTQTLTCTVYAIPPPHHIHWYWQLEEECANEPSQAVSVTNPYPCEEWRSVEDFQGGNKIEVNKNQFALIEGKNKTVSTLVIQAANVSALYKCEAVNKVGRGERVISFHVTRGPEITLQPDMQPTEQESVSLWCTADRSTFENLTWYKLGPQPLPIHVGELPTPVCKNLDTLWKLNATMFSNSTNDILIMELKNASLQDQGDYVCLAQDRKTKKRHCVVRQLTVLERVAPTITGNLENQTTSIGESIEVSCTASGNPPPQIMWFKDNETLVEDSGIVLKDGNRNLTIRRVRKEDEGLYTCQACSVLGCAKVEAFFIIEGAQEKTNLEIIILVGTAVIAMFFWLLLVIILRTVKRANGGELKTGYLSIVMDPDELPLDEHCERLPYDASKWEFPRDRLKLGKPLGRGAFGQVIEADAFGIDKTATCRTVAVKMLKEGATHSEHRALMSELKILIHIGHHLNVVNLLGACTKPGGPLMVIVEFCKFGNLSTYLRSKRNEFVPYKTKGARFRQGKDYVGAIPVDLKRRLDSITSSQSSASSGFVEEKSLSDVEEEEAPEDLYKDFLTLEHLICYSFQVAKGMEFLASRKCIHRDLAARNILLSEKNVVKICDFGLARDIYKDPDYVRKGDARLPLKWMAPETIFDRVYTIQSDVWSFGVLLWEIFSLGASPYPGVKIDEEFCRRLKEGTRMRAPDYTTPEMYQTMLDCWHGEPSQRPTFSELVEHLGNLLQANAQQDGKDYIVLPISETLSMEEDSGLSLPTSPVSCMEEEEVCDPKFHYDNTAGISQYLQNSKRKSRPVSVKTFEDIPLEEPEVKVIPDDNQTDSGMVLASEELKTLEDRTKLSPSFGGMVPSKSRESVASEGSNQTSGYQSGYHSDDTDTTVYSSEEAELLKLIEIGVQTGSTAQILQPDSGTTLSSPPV

For COc1cc2nccc(Oc3ccc4c(C(=O)Nc5ccc(Cl)cc5)cccc4c3)c2cc1OC, the IC50 was 0.5 nM.

— ChEMBL document CHEMBL1144685, “Naphthamides as novel and potent vascular endothelial growth factor receptor tyrosine kinase inhibitors: design, synthesis, and evaluation” (J Med Chem, 2008)
